Assay results as given in patent publication US10251892B2, “Bicyclic heterocycles as FGFR4 inhibitors” (Incyte Corporation, priority 2015, dated 2019).

By UniProt entry, the sequences of proteins in these tests, tags left out. Residues count along the entry.
UniProt P22607, 23-806 limits assumed: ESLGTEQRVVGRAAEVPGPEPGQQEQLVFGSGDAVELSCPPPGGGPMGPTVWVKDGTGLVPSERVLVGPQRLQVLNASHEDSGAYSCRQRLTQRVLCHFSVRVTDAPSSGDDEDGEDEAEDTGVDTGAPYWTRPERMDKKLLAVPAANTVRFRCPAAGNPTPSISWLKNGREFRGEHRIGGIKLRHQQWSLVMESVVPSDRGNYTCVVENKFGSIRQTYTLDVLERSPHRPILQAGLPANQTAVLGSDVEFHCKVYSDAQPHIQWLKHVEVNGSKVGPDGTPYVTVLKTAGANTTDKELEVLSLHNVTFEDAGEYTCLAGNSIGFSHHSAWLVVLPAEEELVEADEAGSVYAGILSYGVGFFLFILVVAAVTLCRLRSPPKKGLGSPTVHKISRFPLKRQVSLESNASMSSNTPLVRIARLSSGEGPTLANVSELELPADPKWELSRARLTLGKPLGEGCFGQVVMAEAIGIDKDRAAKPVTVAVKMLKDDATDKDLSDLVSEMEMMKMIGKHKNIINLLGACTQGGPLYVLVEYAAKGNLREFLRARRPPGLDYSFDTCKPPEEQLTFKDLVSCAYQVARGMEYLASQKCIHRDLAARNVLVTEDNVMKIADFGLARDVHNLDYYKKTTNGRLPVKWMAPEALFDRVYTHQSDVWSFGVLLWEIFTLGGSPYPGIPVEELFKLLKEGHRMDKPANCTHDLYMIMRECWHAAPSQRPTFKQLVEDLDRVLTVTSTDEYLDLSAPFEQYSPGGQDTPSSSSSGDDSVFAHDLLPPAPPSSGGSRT

Target: FGFR3 enzyme (Homo sapiens (Human), UniProt P22607)
Assay: FGFR Enzymatic Assay (peptide phosphorylation, FRET), FGFR3
Assay type: biochemical
Conditions: IC50 ratio showing FGFR3 selectivity; pre-incubated for 4 hours

COc1cc(OC)c(F)c(N2Cc3cnc(-c4cn(C)nc4C)cc3N(c3cnn(C)c3)C2=O)c1F
FGFR1/FGFR3: >10
FGFR4/FGFR3: >10
